Measured values reported in patent US11932652B2, “Pyrrolidinyl urea derivatives and application thereof in TrkA-related diseases” (ZHANGZHOU PIEN TZE HUANG PHARMACEUTICAL CO., LTD., priority 2018, dated 2024).

By UniProt entry, the sequences of proteins in these tests, tags left out. Residues count along the entry.
UniProt P04629, 33-796 limits assumed: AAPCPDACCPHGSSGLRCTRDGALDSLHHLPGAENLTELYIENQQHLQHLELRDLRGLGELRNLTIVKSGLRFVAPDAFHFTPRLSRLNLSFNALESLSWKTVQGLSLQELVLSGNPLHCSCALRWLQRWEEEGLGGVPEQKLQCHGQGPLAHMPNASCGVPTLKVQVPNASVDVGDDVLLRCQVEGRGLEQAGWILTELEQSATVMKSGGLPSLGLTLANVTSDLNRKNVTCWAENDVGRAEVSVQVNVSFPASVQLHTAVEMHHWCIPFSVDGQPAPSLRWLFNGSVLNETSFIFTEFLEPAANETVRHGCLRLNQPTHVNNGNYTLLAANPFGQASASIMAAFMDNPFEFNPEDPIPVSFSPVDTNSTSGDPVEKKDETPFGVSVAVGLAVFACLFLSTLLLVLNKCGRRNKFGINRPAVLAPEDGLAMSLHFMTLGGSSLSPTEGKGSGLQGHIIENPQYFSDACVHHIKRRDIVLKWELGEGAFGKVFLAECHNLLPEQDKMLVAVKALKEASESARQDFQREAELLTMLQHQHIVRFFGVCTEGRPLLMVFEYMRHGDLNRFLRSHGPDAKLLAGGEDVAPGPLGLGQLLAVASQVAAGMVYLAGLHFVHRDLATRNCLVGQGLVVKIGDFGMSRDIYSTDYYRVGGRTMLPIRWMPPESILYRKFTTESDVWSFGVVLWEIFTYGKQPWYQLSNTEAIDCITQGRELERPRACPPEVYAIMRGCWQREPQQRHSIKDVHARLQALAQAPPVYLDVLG

How the values were obtained:
[1] = Metabolic stability (MMS) by rat liver microsome; conditions: 0.5 mg protein/mL
[2] = Metabolic stability (MMS) by human liver microsome; conditions: 0.5 mg protein/mL
TrkA = TrkA (Homo sapiens, UniProt P04629); assay: TrkA enzyme activity test (HTRF); conditions: read-out: TrkA IC50; 0.5 nM TrkA kinase, 90 μM ATP, 23° C., 90 minutes
Description: 50 mM Hepes (pH 7.5), 5 mM MgCl2 (magnesium chloride), 0.01 mM orthovanadate (sodium vanadate), 1% BSA (bovine serum albumin), 1 mM (dithiothreitol)
This experiment used Cisbio's homogeneous time-resolved fluorescence resonance energy transfer (HTRF® method) for activity test. In the test plate, the enzyme, biotin-labeled peptide substrate, ATP, and test compound were mixed, and incubated for reaction. After the reaction, ethylenediaminetetraacetic acid was added to terminate the reaction; at the same time, Eu-labeled antibody and streptavidin-labeled XL665 were added for reaction and detection. The data were expressed by the readings of the fluorescence signal at 665 nm and 620 nm, where a high ratio of 665 nm/620 nm indicated higher activity, and a low ratio of 665 nm/620 nm indicated inhibition of activity.
1. Dilution of compound: the test compound was 3-fold diluted to prepare a total of 11 concentrations, the concentration was from 10 μM to 0.17 nM in the final system;
2. […] 10 μL of stop solution containing 20 mM EDTA, 1.34 nM phosphorylated substrate antibody, and 100 nM streptavidin-labeled fluorescent molecule XL-665 was then added, incubated at 23° C. for 60 minutes; the signal was read with Envision;
3. The inhibition rate of the compound was calculated from the data read by the instrument, and the IC50 value was calculated using the mode 205 in XLFIT5 of IDBS.

plasma protein [3] = assay: Plasma protein binding rate (PPB) test, human plasma; conditions: 2 μM, dialysis 37° C. 4 hours
plasma protein [4] = assay: Plasma protein binding rate (PPB) test, SD rat plasma; conditions: 2 μM, dialysis 37° C. 4 hours

| Structure (SMILES) | Intrinsic clearance by liver microsome, Rat [1] | Intrinsic clearance by liver microsome, Human [2] | IC50 (TrkA) | Plasma protein unbound rate, Human plasma (plasma protein [3]) | Plasma protein unbound rate, SD Rat plasma (plasma protein [4]) |
| --- | --- | --- | --- | --- | --- |
| COCCN1C[C@@H](n2cc(F)c(F)c2)[C@H](NC(=O)Nc2c(C)c(-c3cnc4c(c3)CN(CCO)C4)nn2-c2ccccc2)C1 | <17.3 mL/min/kg | 45.3 mL/min/kg | 0.25 nM | 33.8% | 8.0% |
| COCCN1C[C@@H](n2ccc(F)c2)[C@H](NC(=O)Nc2c(C)c(-c3cnc(C4(F)CN(C)C4)nc3)nn2-c2ccccc2)C1 |  |  | 0.92 nM |  |  |
